Patent USRE48461E1, “Modulation of androgen receptor expression” (Ionis Pharmaceuticals, Inc., priority 2012, dated 2021)

Assays:
Type in all cases: cell-based, human
TMPRSS2 mRNA [1] = assay: TMPRSS2 expression in VCaP cells; settings: complete medium, 1.0 μM, 48 hrs
AR mRNA [2] = assay: AR RNA expression in C4-2 cells (complete, CSS+DHT medium); settings: 48 hrs
AR mRNA [3] = assay: AR RNA expression in LNCaP cells (complete, CSS, CSS+DHT medium); settings: for Percent expression of AR in LNCaP cells cultured in complete medium: 48 hours
Procedure: Cells were plated at 1,000 cells per well. ISIS 560131 or ISIS 569236 was added individually at 0.04 μM, 0.2 μM, 1.0 μM, or 5.0 μM. ISIS 549148 was included as a negative control. MDV3100 was added a dose of 0.04 μM, 0.2 μM, 1.0 μM, or 5.0 μM. μM in a separate set of cells. After an incubation period of 48 hours, RNA levels of AR, PSA and TMPRSS2 were measured.
Cells were plated at 2,000 cells per well and cultured in phenol red-free RPMI supplemented with 5% charcoal stripped serum (Gibco) media for 16 hours. ISIS 560131 or ISIS 569236 was added individually at 0.04 μM, 0.2 μM, 1.0 μM, or 5.0 μM to each cell set. ISIS 549148 was included as a negative control. MDV3100 was added at 0.04 μM, 0.2 μM, 1.0 μM, or 5.0 μM in a separate set of cells. After an incubation period of 4 hrs, DHT was added to the medium to a final concentration of 1 nM as indicated. RNAs were collected 48 hrs later and levels of AR, PSA and TMPRSS2 were measured. In the absence of DHT, AR expression in LNCaP cells was 95%, PSA expression was 7% and TMPRSS2 expression was 24% compared to the untreated control.

TMPRSS2 mRNA [4] = assay: TMPRSS2 mRNA levels in LMR20 cells; settings: R1881 10 nM 72 hrs, ASO 0.04 μM
Procedure: (§1) LMR20 cells were plated at 1,500 cells per well in phenol red-free medium with CSS. ISIS 560131, ISIS 549458, ISIS 569236, and the LNA gapmer ISIS 554221 were individually added to the culture media at 0.04 μM, 0.2 μM, 1.0 μM, or 5.0 μM concentration. ISIS 549148, which has no known human target sequence, was included as a control. MDV3100 was added on day 1 at a dose of 10 nM to a set of cells, and served as a control. DHT was added on day 1 at a dose of 10 nM for 72 hrs to one set of cells also treated with each of the antisense oligonucleotides or MDV3100. R1881 was added on day 1 at a dose of 10 nM for 72 hrs to another set of cells also treated with each of the antisense oligonucleotides or MDV3100. mRNA levels of AR, prostate-specific antigen (PSA) and TMPRSS2, an androgen-regulated gene (Lin, B., et al., Cancer Res. 1999. 59: 4180), were measured. Results are presented in Tables 43-45 as mRNA levels expressed as a percentage of the baseline values. mRNA levels may be lowered or increased after treatment.

full length AR mRNA [5] = assay: Full-length AR RNA in VCaP cells (complete, CSS+DHT medium); settings: 48 hrs
AR mRNA [6] = assay: AR mRNA levels in LMR20 cells (with/without DHT or R1881); settings: R1881 10 nM 72 hrs, ASO 5.0 μM
Procedure: as §1

full length AR mRNA [7] = assay: Full-length AR RNA in 22RV1 cells (complete, CSS+DHT medium); settings: 48 hrs
AR mRNA [8] = assay: Time-course AR mRNA expression in C4-2B cells (8, 24, 48 hours)

CNC(=O)c1ccc(N2C(=S)N(c3ccc(C#N)c(C(F)(F)F)c3)C(=O)C2(C)C)cc1F [MDV3100, 4-(3-(4-cyano-3-(trifluoromethyl)phenyl)-5,5-dimethyl-4-oxo-2-thioxoimidazolidin-1-yl)-2-fluoro-N-methylbenzamide]
Percent of gene expression, TMPRSS2 (TMPRSS2 mRNA [1]): 135%
Percent expression of AR (AR mRNA [2]; 1 μM): 156%
Percent expression of AR (AR mRNA [2]; 5.0 μM): 148%
Percent expression of AR in LNCaP cells cultured in complete medium (AR mRNA [3]; 0.04 μM): 111%
TMPRSS2 mRNA levels (% baseline value) after treatment with R1881 (TMPRSS2 mRNA [4]): 114 % baseline value
Percent of gene expression, Full length AR (full length AR mRNA [5]; CSS + DHT medium, 0.04 μM): 114%
Percent of gene expression, Full length AR (full length AR mRNA [5]; CSS + DHT medium, 0.2 μM): 94%
Percent of gene expression, Full length AR (full length AR mRNA [5]; CSS + DHT medium, 1.0 μM): 142%
Percent of gene expression, Full length AR (full length AR mRNA [5]; CSS + DHT medium, 5.0 μM): 233%
Percent of gene expression, Full length AR (full length AR mRNA [5]; complete medium, 0.04 μM): 136%
Percent of gene expression, Full length AR (full length AR mRNA [5]; complete medium, 0.2 μM): 135%
Percent of gene expression, Full length AR (full length AR mRNA [5]; complete medium, 1.0 μM): 160%
Percent of gene expression, Full length AR (full length AR mRNA [5]; complete medium, 5.0 μM): 178%
AR mRNA levels (% baseline value) after treatment with R1881 (AR mRNA [6]): 136 % baseline value
Percent of gene expression, Full length AR (full length AR mRNA [7]; CSS + DHT medium, 0.04 μM): 5%
Percent of gene expression, Full length AR (full length AR mRNA [7]; CSS + DHT medium, 0.2 μM): 11%
Percent of gene expression, Full length AR (full length AR mRNA [7]; CSS + DHT medium, 1.0 μM): 6%
Percent of gene expression, Full length AR (full length AR mRNA [7]; CSS + DHT medium, 5.0 μM): 18%
Percent of gene expression, Full length AR (full length AR mRNA [7]; complete medium, 0.04 μM): 103%
Percent of gene expression, Full length AR (full length AR mRNA [7]; complete medium, 0.2 μM): 93%
Percent of gene expression, Full length AR (full length AR mRNA [7]; complete medium, 1.0 μM): 81%
Percent of gene expression, Full length AR (full length AR mRNA [7]; complete medium, 5.0 μM): 83%
Percent expression of AR compared to the control group in 8 hours (AR mRNA [8]; 5.0 μM): 103%

GGCTACTACGCCGTCA (3-10-3 (S)-cEt gapmer, chemistry not fully specified) [ISIS 549148]
Percent expression of AR (AR mRNA [2]; 5.0 μM): 111%
Percent expression of AR in LNCaP cells cultured in CSS + DHT medium (AR mRNA [3]; CSS + DHT (1 nM) medium, 5.0 μM, 48 hrs): 111%
Percent expression of AR in LNCaP cells cultured in complete medium (AR mRNA [3]; 0.2 μM): 111%
Percent expression of AR compared to the control group in 8 hours (AR mRNA [8]; 1 μM): 111%

TGATTTAATGGTTGCA [ISIS 569236] (cEt/MOE gapmer chemistry, further chemistry not given here) [targets intron 1]
Percent expression of AR compared to the control group in 24 hours (AR mRNA [8]; 0.04 μM, 24 hours): 103%
